In the series the test system is hyaluronidase. Nature of the series: Anti-enzyme decomposition capability analysis (uronic acid assay). The format is in vitro ADME. As to the method:
2 mg hyaluronic acid derivative was placed into a 15 ml centrifuge tube. An appropriate amount of hyaluronidase was added into a PBS solution to form a hyaluronidase solution with a concentration of 250 units/ml. 10 ml of the hyaluronidase solution was added into the 15 ml centrifuge tube containing the hyaluronic acid derivative, and then kept at 37° C. (water bath) for 24 hours. […] An appropriate amount of D-glucuronic acid powder was precisely weighted and dissolved in the deionized water to prepare a stock solution for a D-glucuronic acid standard solution. […] Equation for calculating the amount of the hyaluronic acid derivative which is not degradation by the enzyme (hyaluronidase): The hyaluronic acid derivative which is not degradation by the enzyme=(Cg/Cs)×Z×[100/(100-h)]×(401.3/194.1) Cg: Average concentration of D-glucuronic acid in the hyaluronic acid derivative sample solution, represented by mg/g (according to the absorbance value). Cs: Average concentration of sodium hyaluronate in the hyaluronic acid derivative sample solution, represented by mg/g (according to the concentration of the hyaluronic acid derivative sample solution prepared). […]

For “HA1,040,000-g-100% PEG550 Copolymer [Example B-12]”, the “hyaluronic acid/hyaluronic acid derivative degradation ratio (%)” value was 33.1%.

These data come from patent publication US8425931B2, “Biodegradable hyaluronic acid derivative” (Industrial Technology Research Institute, priority 2003, dated 2013).
